# Antibody variant affinities, Ab-14 heavy chain, assay 1

Source: Engelhart et al. 2022 (doi:10.1038/s41597-022-01779-4), MIT Lincoln Laboratory and A-Alpha Bio; data file from the FLAb repository.

All variants were tested on one target, the spike HR2 peptide PDVDLGDISGINAS (SARS-CoV-2).

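The parent was found by panning a naive human phage display library on the peptide. Library AAYL49 holds single substitutions and randomly drawn double and triple substitutions in the CDRs. In AlphaSeq, yeast of one mating type display the scFv and yeast of the other type display the target. Mating (16 h, 30 °C) was followed by selection of diploids and sequencing of their barcodes. A regression on co-assayed BCL2-family reference pairs converts the normalised counts of each replicate to an apparent Kd. Each pool was mated in three replicate cultures.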

Ab-14 is the parent antibody, in scFv form: VH, then the linker GGGGSGGGGSGGGGS, then VL. The light chain is unchanged in all variants.
VH: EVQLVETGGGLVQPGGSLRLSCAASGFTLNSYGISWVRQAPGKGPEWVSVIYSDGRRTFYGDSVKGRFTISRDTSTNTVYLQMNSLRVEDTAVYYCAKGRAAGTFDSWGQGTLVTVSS
VL: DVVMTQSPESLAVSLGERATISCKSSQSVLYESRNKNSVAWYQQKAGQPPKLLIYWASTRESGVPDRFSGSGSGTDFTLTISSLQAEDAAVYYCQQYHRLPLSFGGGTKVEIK

Each variant is given by its three heavy chain CDRs, as the data file delimits them; those of the parent are GFTLNSYGIS, VIYSDGRRTFYGDSVK, GRAAGTFDS. Values are log10 of the apparent Kd in nM; lower means stronger binding. "nd" means that the variant was in the library but no mating with the target was seen in that replicate; the authors take this as a sign of poor binding, and no number exists.

CDR-H1	CDR-H2	CDR-H3	log10 Kd, replicates	empty controls
GFTLNSYGIS	VINSDGRRTFYGEEVK	GRAAGTFDS	nd / 4.70 / 5.29	0/9
GFTLNSYGIS	RIYSQGRRTFYGDSVK	GRAAGTFDS	nd / nd / nd	1/9 (2.79)
GFTLNSYGIS	VIYSDGDRTFHGDSVK	GRAAGFFDS	nd / nd / nd	0/9
HFRLNSYGIK	VIYSDGRRTFYGDSVK	GRAAGTFDS	nd / 4.68 / nd	2/9 (2.95)
GFTLNSYGIS	VIYSDGRRTFYRDVVK	GRAAGTFDS	nd / nd / nd	0/9
GFTLNSYGIS	VNYSDGRRTFYGDSVK	GRAAGVFDM	nd / nd / nd	0/9
GFTLNSYGQS	VIYSDGRRTFYGVSVK	GRAAGFFDS	nd / nd / nd	2/9 (4.00)
GFTLNSYGIS	VIASDGRRTFYIDSVK	GRAAGTTDS	nd / nd / 3.60	2/9 (4.57)
GFTLNSYGFS	FIYSDGRRTFSGDSVK	GRAAGTFDS	nd / 3.38 / nd	1/9 (2.85)
GFTLNSCGIS	VQYSDGRRTFYGDSVK	GRAWGTFDS	4.12 / nd / nd	3/9 (3.44)
GFTVNSYGIS	VVYSDGRRTFYGDSVK	GRAAGTFDE	3.44 / 3.11 / nd	3/9 (3.77)
GCTLNSYGIS	VIYRDGFRTFYGDSVK	GRAAGTFDS	nd / nd / nd	0/9
GITLNSYGIS	VIESDGRRTFFGDSVK	GRAAGTFDS	nd / nd / nd	0/9
GFTLMSYGIS	VIYSDGRRTFYGDSVK	LRAIGTFDS	nd / nd / nd	3/9 (3.73)
GFLLNSYGIS	VIYSDGRRTFNGDSVK	GRAAGTFDS	nd / 3.98 / nd	0/9
GFTLNSGGIS	HIYSDGRRTFYGDSVC	GRAAGTFDS	4.50 / nd / 5.82	4/9 (3.98)
GFALNSYGIS	VIYSDGRRTEYGDSVK	GRAAMTFDS	0.52 / 0.88 / 0.78	4/9 (4.54)
GFTLNTYGIS	VIYPDGRRTLYGDSVK	GRAAGTFDS	nd / nd / nd	0/9
GFTFNKYGIS	GIYSDGRRTFYGDSVK	GRAAGTFDS	4.90 / 3.94 / 6.92	6/9 (4.68)
GFTLNYYGIS	VIYWDGRRTFYGDDVK	GRAAGTFDS	nd / nd / nd	4/9 (3.79)
GFALNSYGIS	VIYSDGRRTFDGDSVK	GFAAGTFDS	nd / nd / nd	0/9
GFTLNSYGIS	VIKSDGRRTFYGDSVK	GRRAGTTDS	nd / nd / nd	0/9
GFTLNSYGIS	VIYSDGRRTYYGDSVT	GRAAGTFCS	2.22 / 2.27 / 2.33	0/9
GFTLNSIGIS	WIYSDGRRTFYGDSVK	GMAAGTFDS	nd / nd / nd	0/9
GFTLNSYGPS	VIYSDGKRTFYGDSVK	GRAAGTDDS	nd / nd / nd	1/9 (2.84)
GFTLNSMGIS	VIYMDGRRTFYIDSVK	GRAAGTFDS	nd / nd / nd	3/9 (3.54)
GFTDNSYGIS	VIESDGRRTFYGDAVK	GRAAGTFDS	3.87 / 4.19 / 6.49	3/9 (5.43)
GFTLNSSGIS	VIKSDGYRTFYGDSVK	GRAAGTFDS	nd / 2.84 / nd	0/9
GFTLNSYGIS	VIYSDGRRTVYGDSVK	GTAAGHFDS	nd / 4.67 / 5.17	4/9 (4.94)
TFTMNSNGIS	VIYSDGRRTFYGDSVK	GRAAGTFDS	nd / nd / nd	0/9
GFTLNSYVIS	VYYSDGRRHFYGDSVK	GRAAGTFDS	3.52 / 4.67 / 3.73	7/9 (4.65)
HFTLNSYGIS	VIYGDGRRTFYGDSVK	GRAAGTFDG	nd / nd / nd	0/9
GFTLNSYGIS	VIHSDGRGTFYGDSVH	GRAAGTFDS	nd / 2.46 / nd	0/9
DFTLNSYGFS	VIYSDGRRTFYGDSVK	GRAAGTFDS	3.51 / nd / nd	1/9 (4.55)
EFSLNSYGIS	VIYSDGRRTFYGDSVK	IRAAGTFDS	2.22 / 1.58 / 1.54	0/9
GFTLNSYGIS	VFYSDGRRTFYGDSVK	QRAAGTFDS	nd / 2.69 / nd	0/9
HFTLNSYGIS	PIYSDGRRTFYGDSVK	GRAAGTFES	nd / 3.63 / 5.05	7/9 (4.07)
GFTLNRYGIS	VIYSDGRPTFYGDYVK	GRAAGTFDS	nd / 4.91 / 4.74	4/9 (4.10)

For reference, 2 entries of the list once more:

CDR-H1	CDR-H2	CDR-H3	log10 Kd, replicates	empty controls
GFALNSYGIS	VIYSDGRRTEYGDSVK	GRAAMTFDS	0.52 / 0.88 / 0.78	4/9 (4.54)
TFTMNSNGIS	VIYSDGRRTFYGDSVK	GRAAGTFDS	nd / nd / nd	0/9

Parent in this assay: reference entry 0.65, copy in this library 4.11 (one replicate of three). Three control strains display no target. For library AAYL49, 15% of the pairings with them gave a signal, with a median of 4.06 and one signal in twenty below 2.83, so weak values seen in few replicates may be background. The control count says in how many pairings with the empty strains this scFv gave a signal, with their mean in brackets.